We go through 25 molecules from PubChem BioAssay AID1214 (Sanford-Burnham Center for Chemical Genomics, 2008).

Chains of the proteins cited; added tags and fusions are not shown.
UniProt P34949, whole entry: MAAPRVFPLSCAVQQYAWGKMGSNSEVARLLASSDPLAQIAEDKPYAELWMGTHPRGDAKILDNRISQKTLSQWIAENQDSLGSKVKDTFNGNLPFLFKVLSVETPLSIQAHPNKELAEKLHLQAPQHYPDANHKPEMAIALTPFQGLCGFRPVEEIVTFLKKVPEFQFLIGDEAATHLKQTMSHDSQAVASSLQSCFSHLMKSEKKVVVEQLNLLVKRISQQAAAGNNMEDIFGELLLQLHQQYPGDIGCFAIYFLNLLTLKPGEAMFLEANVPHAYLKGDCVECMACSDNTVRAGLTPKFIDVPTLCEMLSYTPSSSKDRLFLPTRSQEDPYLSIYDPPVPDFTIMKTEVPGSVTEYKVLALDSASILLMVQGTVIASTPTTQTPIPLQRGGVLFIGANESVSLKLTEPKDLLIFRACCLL

Structures are written as SMILES. The list shows a part of the results, in another mix than the full data. Calls of active or inactive are those of the source.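 Rule for the calls: active = activation factor of 2 or more at 20 µM, relative to plate controls; inactive = the rest.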

The target in the assay is Mannose-6-phosphate isomerase (Homo sapiens) (UniProt P34949). Briefly: activators of human PMI, primary screen, biochemical, fluorescence intensity, near-Km mannose 6-phosphate (AID 1214). The note with it: purified human PMI, coupled resazurin fluorescence, 20 min, at 20 µM; hits give high values, 1 = vehicle control, 0 substrate-free wells.
As for `CC(C)c1ccc(NC2CCN(C(=O)OC(C)(C)C)CC2)cc1`, the activation factor is inactive: 0.9.
To `COc1ccc(CN(CCCl)CCCl)cc1Cl` belongs inactive: 0.7.
With `CN(C)c1cccc(C(=O)NCC2(N3CCCCC3)CCCCC2)c1` the figure was inactive: 1.5.
For the molecule `N#CC1(Nc2ccccc2)CCN(CCc2ccccc2)CC1`, the activation factor result is “inactive”.
In the case of `O=C(NCC1(N2CCCCC2)CCCCC1)c1cccc([N+](=O)[O-])c1`, the activation factor was inactive: 1.1.
With `O=C(NCC1(N2CCOCC2)CCCCC1)c1cc(=O)[nH]c2ccccc12` the figure was inactive: 0.9; with `CN1CCN(CCOC(=O)C(O)(c2ccccc2)c2ccccc2)CC1`, inactive: 0.7; with `COc1ccc(NC2CCN(C(=O)OC(C)(C)C)CC2)cc1`, “inactive”.
With `COc1ccc(NC2CCN(CCc3ccccc3)CC2)c(OC)c1` the figure was inactive: 0.8.
In the case of `COc1ccc(C(=O)NCC2(N3CCCCC3)CCCCC2)c(OC)c1OC`, the activation factor entry was “inactive”.
With `O=C(NCC1(N2CCOCC2)CCCCC1)c1cc2ccccc2o1`, the activation factor entry was “inactive”.
As for `O=C(OC1CN2CCC1CC2)C1c2ccccc2Oc2ccccc21` (stereo not given), the activation factor was inactive: 0.9.
To `CCOC(=O)N1CCC(Nc2ccc(OC)cc2)CC1` belongs “inactive”.
To `CCOc1ncccc1C(=O)NCC1(N2CCOCC2)CCCCC1` belongs inactive: 0.9; to `CC(C)(C)OC(=O)N1CCC(Nc2ccccc2)CC1`, inactive: 1.1.
With `COc1cc(OC)cc(C(=O)NCC2(N3CCOCC3)CCCCC2)c1` the figure was inactive: 1.1.
For the molecule `CCC(CO)(C(=O)OC1CN2CCC1CC2)c1ccccc1` (stereo not given), the activation factor result was “inactive”.
For `Fc1ccccc1NC1CCN(Cc2ccccc2)CC1`, the activation factor is inactive: 1.2.
With `CCN1CCC(Nc2cccc(F)c2)CC1` the figure was inactive: 0.9.
With `CN(C)c1ccc(C(=O)NCC2(N3CCCCC3)CCCCC2)cc1` the entry was “inactive”; with `N#Cc1ccc(C(=O)NCC2(N3CCCCC3)CCCCC2)cc1`, inactive: 1.1.
As for `c1ccc(CN2CCC(Nc3ccccc3)CC2)cc1`, the activation factor is inactive: 0.8.
In the case of `COc1ccc(C(=O)NCC2(N3CCOCC3)CCCCC2)cc1OC`, the activation factor was inactive: 1.1.
With `N/C(=N\O)c1c(N)no[n+]1[O-]`, the activation factor is inactive: 1.1.
To `O=C(OC1CN2CCC1CC2)C1c2ccccc2C=Cc2ccccc21` (stereo not given) belongs inactive: 1.1.
